Screening data: PubChem, National Center for Advancing Translational Sciences (NCATS)
Rows were chosen to be rich in hits. Some 0.62% of all compounds tested hit in one or more screens of this group.
IL-2 act – activates IL-2 in a cell-based reporter assay | IL-2 activation reporter assay, cell-based qHTS; stimulated with anti-CD3/CD4/CD28 beads; in transgenic mouse T cells | activation, % (series mostly up to about 46 µM) | 360,000 compounds, 0.065% hits | AID 652025; in the data active = activation above about 50%; inconclusive = mostly about 30% to 49%; also: 0% is about no effect
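Screening format: compound pinned onto unstimulated transgenic mouse T cells, 60 min incubation, then anti-CD3/anti-CD4/anti-CD28 bead stimulation for 18 hours at 37 degrees C, followed by EGFP and DsRed detection.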
uPA generation – inhibitors of cell surface uPA generation; 330,000 compounds, 0.31% hits; AID 540303; cell surface uPA generation assay, qHTS; Potency, µM (titrated, usually from 38.3 µM), for the others: at the top dose activity change, negative = inhibition, hits mostly inhibitors; active = well fitted inhibition curve with a large enough effect; inconclusive = small, poorly fitted or top-dose-only effect; inactive = no such curve, though single readings can be large or run the other way; tested in mouse RAW 264.7 cells; also: potency is read from the fitted curve at half-maximal effect; % is scaled to controls: 0 for no effect and ±100 for the full control effect; nearly all actives have a fitted effect of over 55% in size
PINK1 expr mod – changes PINK1 expression; PINK1 immunofluorescence, high-content cytometry, 24 h; Potency, µM (doses to about 76.6 µM), without a hit: at the highest dose activation (PINK1 increase), hits mostly activators; 410,000 compounds, 0.2% hits; active = well fitted activation curve with a large enough effect; inconclusive = small, poorly fitted or top-dose-only effect; cell line not stated here; also: potency is read from the fitted curve at half-maximal effect; % of control where 0% means no effect; nearly all actives have a fitted effect of over 65% in size
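Compound titrations (5 concentrations, 24 h) on a stable cell line; DMSO and CCCP controls. Endpoint: fixed-cell PINK1 immunofluorescence with mitochondrial, cell and nuclear markers, scanned by microplate cytometer.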
Epigenetic reg – regulators of epigenetic silencing causing reporter derepression in mouse cells. murine LDR cells, GFP reporter derepression, 30 h. Potency, µM (titrated, usually from 53.9 µM), for the others: top-dose GFP activation, most hits filed as activators. 280,000 compounds, 0.2% hits. AID 1865; also: potency is read from the fitted curve at half-maximal effect; % of control where 0% means no effect; nearly all actives have a fitted effect of over 60% in size
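In this reporter-derepression format, murine cells bearing a silenced integrated CMV-GFP locus incubate with test compound (30 h, 37 C), then are washed and imaged; fluorescent objects of 20–120 um count as induced cells.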
p53 reactivator – mutant p53 re-activation in reporter cells; H1299 p53-A138V BP100-luciferase reporter, luminescence, 24 h; Potency, µM (series often up to 92.2 µM), for the others: top-dose activity change, positive = activation, actives largely listed as activators; 320,000 compounds, 0.063% hits; AID 504706; also: potency is read from the fitted curve at half-maximal effect; % of control where 0% means no effect; nearly all actives have a fitted effect of over 45% in size
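p53-null H1299 cells stably carrying temperature-sensitive p53-A138V and a BP100-luciferase reporter were pinned with compounds (4-point, 1:5 series) and held 24 hrs at 37 deg C. Luminescence was read 10 min after detection reagent.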
miR-21 FLuc – raises the signal of a miR-21 reporter | HeLa miR-21 FLuc reporter, luciferase, 48 h | 340,000 tested, under 10 active | Potency, µM (titrated, usually from 38.3 µM), inactives show at the highest dose reporter change, positive = more light; active = well fitted rising curve with a large enough effect; inconclusive = small, poorly fitted or top-dose-only effect; inactive = no such curve, though single readings can be large or run the other way;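 further: % of control where 0% means no effect; miR-21 action dims this reporter so a rising signal means less miR-21 action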
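HeLa cells endogenously expressing miR-21, stably carrying CMV-driven firefly luciferase with a downstream miR-21 binding site, 2000 cells/well. Titrations up to approximately 40 uM, 48 hours; luciferase luminescence read.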
Active calls of the source: *; ? = inconclusive; · = no result given; [ ] = another dose, or the depositor's remark. Unless noted, calls follow the shape of the dose curve; as a rule, active = well fitted curve in the direction sought with a large enough effect; inconclusive = small, poorly fitted or top-dose-only effect, or another doubt; inactive = no such curve, though single readings can be large; an effect the other way counts as inactive or inconclusive.

IL-2 act | uPA generation | PINK1 expr mod | Epigenetic reg | p53 reactivator | miR-21 FLuc | canonical_smiles
-3 | 4µM* | 9% | -1% | 8.9µM* | -26% | C(=C\c1ccccc1)/C=N/Nc1nc2ccccc2[nH]1
0 | 10µM* | ? | 1% | ? | -24% | Brc1ccc(-c2ccc(/C=N/Nc3nc4ccccc4[nH]3)o2)cc1
-3 | -1% | 0% | 0% | 14% | -50% | O=[N+]([O-])c1ccccc1N/N=C/c1c[nH]c2ccccc12
-2 | -2% | 8% | 0% | -1% | -1% | Brc1ccc(-c2ccc(/C=N/Nc3nncc(-c4ccccc4)n3)o2)cc1
· | · | -1% | · | · | · | OC1(c2cccnc2)CCN(Cc2ccc3c(c2)CN(Cc2cccc(F)c2F)CCO3)CC1
1 | 11µM* | 3% | 1% | 4% | 7% | O=C(Nc1cccn(Cc2c(F)cccc2Cl)c1=O)NC1CCCCC1
· | · | -1% | · | · | · | C=Cc1ccc(C(=O)N2CCc3c(cnc(C)c3CNC(=O)c3ccc4c(c3)OCO4)C2)cc1
0 | -21% | 11µM* | 0% | -11% | ? | CCCCCCCn1c2c(c(=N)c3c1CCC3)CCCC2
-1 | -7% | -1% | 0% | -29% | ? | CCCCCCCCCn1c2c(c(=N)c3c1CCC3)CCC2
-4 | -19% | -2% | 8% | 11% | -32% | Oc1ccc(/C=C/c2ccnc3ccccc23)cc1
· | · | 32µM* | · | · | · | C[N+](C)(C)c1ccc(/C=C/c2ccnc3ccccc23)cc1
· | · | 3.2µM* | · | · | · | CCC[N+](C)(C)c1ccc(/C=C/c2ccnc3ccccc23)cc1
· | · | 2% | · | · | · | CC(NC(=O)c1cccnc1)c1nnc2n1CCN(Cc1ccc(-c3ccccc3)cc1)CC2 (stereo not drawn)
0 | -1% | 3% | 1% | -6% | -2% | CCOC(=O)N1CCN(C(=O)c2ccc3c(=O)n(Cc4ccc(Cl)cc4)c(=S)[nH]c3c2)CC1
-6 | -1% | 25µM* | · | -2% | 2% | CCOC(=O)N1CCN(C(=O)c2ccc(Cn3c(=S)[nH]c4ccc(Br)cc4c3=O)cc2)CC1
2 | 8.9µM* | 13% | · | 8% | -20% | COc1ccc(-c2cc(C(=O)N/N=C(\C)c3cccnc3)c3ccccc3n2)cc1
· | · | 0% | · | · | · | Cc1ccc(F)cc1S(=O)(=O)NCc1nc(N2CCCC2)c2cccc(C)c2n1
· | · | 0% | · | · | · | COc1ccc(/C=C/c2sc3ccccc3[n+]2CCCCI)cc1OC
· | · | 40µM* | · | · | · | CN(C)c1ccc(/C=C/c2sc3ccccc3[n+]2Cc2ccccc2)cc1
· | · | 14µM* | · | · | · | CCCN(CCC)c1ccc(/C=C/c2sc3ccccc3[n+]2CCCCI)cc1
0 | 1% | 4%[38.3 µM] | 0% | 3% | -3% | O=C(NC1CCCCC1)C1CCN(c2nnnn2-c2ccccc2)CC1
2 | -20% | 2.8µM* | -11% | 10% | 2% | c1ccc(-n2nnnc2NC2CCCCC2)cc1
0 | -2% | -2% | · | 40µM* | 6% | O=C1/C(=C/c2ccc(O)cc2)COc2ccccc21
-3 | · | 9% | -4% | 4% | 3% | O=C1/C(=C/c2ccccn2)COc2ccccc21
56* | -7% | · | 0% | -9% | -8% | CCc1ccc(NC(=O)C2CCN(S(C)(=O)=O)CC2)cc1
· | · | 18µM* | 10% | · | ? | O=C(Nc1ccc(Cl)cc1)C1CCN(S(=O)(=O)c2ccc(Br)s2)CC1
-1 | 1% | 1% | -1% | 18% | -27% | Cc1cc(/C=C2/NC(=O)NC2=O)c(C)n1-c1ccccn1
67* | -2% | -2% | 3% | 10% | -35% | Cc1ccc(-n2c(C)cc(/C=C3\NC(=O)NC3=O)c2C)c(C)c1
· | · | 0% | · | · | · | Cc1ccc2cc(CNC(C)c3cccc4ccccc34)c(N3CCC(O)CC3)nc2c1 (stereo not drawn)
0 | -3% | 0% | -3% | 1% | · | COc1ccc(/C=C/C(=O)O)cc1
0 | -8% | 1% | 0% | 40µM* | -20% | COc1ccc(/C=C/C(=O)C2(O)CCCCC2)cc1
0 | -11% | 2% | · | · | · | CC(=O)OC1(C(C)=O)CCC2C3CC(C(F)(F)F)C4=CC(=O)CCC4(C)C3CCC21C (stereo not drawn)
-1 | 2% | 16µM* | · | 2% | -5% | CC(=O)C12CCCCC1CC1[C@@H]3CC(C)C4=CC(=O)CC[C@]4(C)C3CC[C@@]12C (stereo partly drawn)
2 | 2% | 2% | · | · | · | CC12CCC(=O)C=C1C(O)CC1C2CCC2(C)C1CCC2(O)C(=O)CO (stereo not drawn)
-1 | -29% | 32µM* | -2% | 0% | 15% | CC(=O)O[C@]1(C(C)=O)CC[C@H]2[C@@H]3C[C@H](C)C4=CC(=O)CC[C@]4(C)[C@H]3CC[C@@]21C
· | · | 2% | · | · | · | Cc1cc2c(c(-c3cnccn3)c1)OC(CNC(=O)c1cc(C(C)C)[nH]n1)C2 (stereo not drawn)
· | · | 1% | · | · | · | O=C(NC1CCN(Cc2ccccc2)C1)c1cnn(-c2ncc3c(n2)-c2ccccc2CC3)c1C1CC1 (stereo not drawn)
· | · | 1% | · | · | · | Cc1ccc(CN2CCOc3ccc(CN4CCC(O)(c5cccnc5)CC4)cc3C2)cc1
· | · | 0% | · | · | · | O=C(NCC1Cc2cccc(-c3ccccn3)c2O1)c1cnn2cccnc12 (stereo not drawn)
3 | · | 11µM* | 0% | -4% | 1% | O=C(Oc1ccc2c(c1)OCO2)c1ccc(Br)c(S(=O)(=O)N2CCOCC2)c1
-1 | -9% | 13µM* | -1% | ? | 7% | COc1cccc(/C=N/Nc2snc(SC)c2C#N)c1O
· | · | 0% | · | · | · | Cc1nn(-c2ccccc2)c(C)c1CC(=O)NCC1Cc2cc(F)cc(-c3cccnc3)c2O1 (stereo not drawn)
0 | 11µM* | 8% | · | · | · | O=C(Nc1ccccc1OC(=O)c1ccccc1)c1ccccc1
0 | 2% | 3% | · | · | · | O=C(CCc1ccccc1)Nc1ccccc1OC(=O)c1ccccc1
· | · | 1% | · | · | · | Cn1cnnc1Sc1ccc(CN2CCOc3ccc(C4=Cc5ccccc5C4)cc3C2)o1
-1 | ? | 16µM* | -1% | 3% | 1% | COc1cccc(NC(=S)/C(=C(\[O-])c2cc(C)n(-c3ccccc3F)c2C)[n+]2ccc(N(C)C)cc2)c1
· | · | 0% | · | · | · | CC(C)(C)c1ccc(S(=O)(=O)N[C@H]2CC[C@@H](n3cc(C(=O)N4CCCC4)nn3)CC2)cc1
2 | 6% | 7% | 13µM* | 0% | -6% | COc1ccc(-c2[nH]n(-c3ccc([N+](=O)[O-])cc3)c(=O)c2C=NCc2ccccc2)cc1

Shown with each value named: entries from further up
Cc1nn(-c2ccccc2)c(C)c1CC(=O)NCC1Cc2cc(F)cc(-c3cccnc3)c2O1 (stereo not drawn)
  IL-2 act: · | uPA generation: · | PINK1 expr mod: 0% | Epigenetic reg: · | p53 reactivator: · | miR-21 FLuc: ·
O=C(Nc1ccccc1OC(=O)c1ccccc1)c1ccccc1
  IL-2 act: 0 | uPA generation: 11µM* | PINK1 expr mod: 8% | Epigenetic reg: · | p53 reactivator: · | miR-21 FLuc: ·
O=C(CCc1ccccc1)Nc1ccccc1OC(=O)c1ccccc1
  IL-2 act: 0 | uPA generation: 2% | PINK1 expr mod: 3% | Epigenetic reg: · | p53 reactivator: · | miR-21 FLuc: ·
Cn1cnnc1Sc1ccc(CN2CCOc3ccc(C4=Cc5ccccc5C4)cc3C2)o1
  IL-2 act: · | uPA generation: · | PINK1 expr mod: 1% | Epigenetic reg: · | p53 reactivator: · | miR-21 FLuc: ·
